# From patent publication US20020161528A1, “Tool for lipophilicity determination in drug discovery basic and neutral compounds” (Pfizer Inc., priority 2001, published 2002)
# Tests used:
# [1] = physchem; settings: pH 7.4
# [2] = Table 1; average of literature references only; pH 7.4; cited from earlier work
SMILES,chromatographic logD [1],logDoct [2]
CN(C)CCC(c1ccc(Cl)cc1)c1ccccn1 (centres unmarked) [Chlorpheniramine],1.56,
c1ccc2ccccc2c1 [Naphthalene],,3.37
